## Ab-14 light chain CDR variants: yeast mating affinities

Values reported by Engelhart et al. 2022, doi:10.1038/s41597-022-01779-4 (FLAb copy).

All variants were tested on one target, the spike HR2 peptide PDVDLGDISGINAS (SARS-CoV-2).

Ab-14 is the parent antibody, in scFv form: VH, then three GGGGS repeats, then VL. The heavy chain is unchanged in all variants.
VH: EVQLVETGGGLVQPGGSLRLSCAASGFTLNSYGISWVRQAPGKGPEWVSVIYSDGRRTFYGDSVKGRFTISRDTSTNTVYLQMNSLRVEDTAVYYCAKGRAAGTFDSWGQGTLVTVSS
VL: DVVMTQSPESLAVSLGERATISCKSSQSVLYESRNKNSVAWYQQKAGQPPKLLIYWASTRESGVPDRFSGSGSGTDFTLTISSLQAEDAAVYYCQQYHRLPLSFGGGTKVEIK

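Phage display of a naive human antibody library on the peptide gave the parent. AAYL50 was designed without a model: most single CDR substitutions and a random sample of double and triple ones. In AlphaSeq, yeast of one mating type display the scFv and yeast of the other type display the target. After mating in shaken culture at 30 °C for 16 h, diploids were selected and their barcode pairs sequenced. Read counts were normalised to the haploid input and turned into Kd by a linear fit to BCL2-family pairs of known affinity, for each replicate. There are three technical replicates.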

Variants are written as CDR1, CDR2 and CDR3 of the light chain (limits as in the source). Parent: KSSQSVLYESRNKNSVA, WASTRES, QQYHRLPLS.
Affinities are written as log10 Kd with Kd in nM; a lower number is a better binder.
A mean of the replicates is given; it leaves out those without a signal.
"nd" marks a missing value. The strain was present, yet no cells mated with the target were sequenced in that replicate, which points to weak or no binding.

CDR-L1 | CDR-L2 | CDR-L3 | log10 Kd (nM) by replicate | log10 Kd (nM), mean | empty controls
KSSQSVLYESRNKNSVA | WASTRES | QQYHRLPTT | 1.70 1.74 1.34 | 1.59 | 1 of 9 (4.41)
KSSQSVLTESRNKNSVA | WASERES | QQYHRLPLS | 0.07 0.35 0.18 | 0.20 | 2 of 9 (4.01)
KSSQSVLYESRRKNSVA | WVSTRES | QQYHRIPLS | nd 3.51 5.27 | 4.39 | 1 of 9 (5.67)
KSAQSVLYESGNENSVA | WASTRES | QQYHRLPLS | 0.76 1.00 0.98 | 0.92 | 1 of 9 (5.10)
KSSQSVLYESRNKNSGA | WKSTRES | QTYHRLPLS | nd nd nd | nd | 0 of 9
KSSQSELYESRNKPNVA | WASTRES | QQYHRLPLS | 2.71 3.07 2.99 | 2.92 | 2 of 9 (3.91)
KSSQSYLYESRNKNFVA | WASTRES | QQYHRLWLS | nd 4.56 nd | 4.56 | 1 of 9 (3.84)
KSSQSVLYESRNKNSVA | WHSTRES | QQYHRKPLS | 4.09 3.17 5.65 | 4.30 | 1 of 9 (3.96)
KSSQSVLYESRNKNSVA | WCSTQES | QQYHALPLS | nd nd nd | nd | 0 of 9
KSSQSVLYESRNPESVA | WASTCES | QQYHRLPLS | 4.60 3.57 nd | 4.09 | 5 of 9 (4.44)
KSSQSVLYESRNKNSVA | WRSTRES | QQYHSLWLS | 3.09 3.25 2.89 | 3.08 | 0 of 9
KSSQSVLYQSRNKNSVA | WASTRER | QQYHRLTLS | 3.71 2.61 3.60 | 3.31 | 7 of 9 (4.38)
KSSQAVLYESFNKNSVA | WASTRER | QQYHRLPLS | nd nd nd | nd | 0 of 9
KSSQSVLYESRNKNSVA | WACTAES | EQYHRLPLS | nd nd nd | nd | 3 of 9 (5.36)
KSSQSMLYESRQKNSVE | WASTRES | QQYHRLPLS | nd nd nd | nd | 1 of 9 (3.73)
KSSQSVLYESRNKNSVM | RASTRES | QQYSRLPLS | nd 3.26 6.01 | 4.64 | 3 of 9 (4.14)
KSSQSVLYESRNKNSVA | WTSTGES | QQYHKLPLS | nd nd nd | nd | 0 of 9
KSSQSVLYEARNKNSPA | WADTRES | QQYHRLPLS | nd nd nd | nd | 0 of 9
KSVQSVLYESRNKNSVA | WASQRAS | QQYHRLPLS | nd nd nd | nd | 0 of 9
KSSQQVLYESRNKNAVA | WASTRES | QQYHRLPLS | nd 2.43 nd | 2.43 | 2 of 9 (2.43)
KSSQSVLYESRNKNSVA | WASTFES | QHYGRLPLS | nd nd nd | nd | 0 of 9
KSSQSVLYESRNKNSVS | WASTRES | QQYHRLPLQ | nd 4.43 6.29 | 5.36 | 3 of 9 (4.64)
KASQSNLYESRNKESVA | WASTRES | QQYHRLPLS | 1.20 1.32 1.37 | 1.30 | 0 of 9
KSSNSVPYESRNKNSVA | WNSTRES | QQYHRLPLS | nd nd nd | nd | 1 of 9 (2.97)
KSSQSVLYEDRNKNSWA | WASTRES | PQYHRLPLS | nd nd nd | nd | 0 of 9
KSSQSVTYESRNKNSVA | WACTRES | QQYHRLPHS | nd nd nd | nd | 0 of 9
ASSQSVLYESPNKNSVA | WASTRES | QQYHRLPLH | 2.20 2.57 2.76 | 2.51 | 1 of 9 (4.51)
KSSQSVLYCQRNQNSVA | WASTRES | QQYHRLPLS | 4.72 nd 3.93 | 4.33 | 4 of 9 (4.23)
KSSQSVLYESRNKNSVA | WNSQRES | QQYHRLHLS | nd nd 2.03 | 2.03 | 0 of 9
TSSQPVLYESRNKDSVA | WASTRES | QQYHRLPLS | 1.02 1.26 1.01 | 1.10 | 1 of 9 (2.87)
KSIQSVLYLSRCKNSVA | WASTRES | QQYHRLPLS | 4.57 3.84 nd | 4.20 | 6 of 9 (4.57)
KSSQSVLYESRVKNSLA | WASKRES | QQYHRLPLS | 2.60 nd nd | 2.60 | 0 of 9
KSSQSVLYEVRNKNGVA | HASTRES | QQYHRLPLS | 1.01 1.23 1.02 | 1.09 | 0 of 9
KSSQSLLYESRNKNSVA | WASTRES | QKYHRLPLH | nd nd nd | nd | 0 of 9
KSYQSVLYESRNKNSVA | WKSTRES | QTYHRLPLS | nd nd nd | nd | 0 of 9
ASVQSVLYESRNTNSVA | WASTRES | QQYHRLPLS | 3.16 2.57 2.36 | 2.69 | 1 of 9 (4.14)
KSSYSVLYESRNKTSVA | WASTRES | QQYHRLPLH | 1.92 1.92 1.90 | 1.92 | 0 of 9
KSSQRVLYESRNKNSVA | YASTRES | QEYHRLPLS | 1.68 2.09 2.19 | 1.99 | 0 of 9
TSSQSVLYESRNKNSVA | WASTRES | QQYHRLPLS | 1.29 1.37 1.20 | 1.29 | 0 of 9
KSSQSVLYESRNKNSVA | WASTRES | TQYHRLPLS | nd nd nd | nd | 0 of 9

Top 6 of the variants detected in all replicates, tightest first:

| CDR-L1 | CDR-L2 | CDR-L3 | log10 Kd (nM) by replicate | log10 Kd (nM), mean | empty controls |
|---|---|---|---|---|---|
| KSSQSVLTESRNKNSVA | WASERES | QQYHRLPLS | 0.07 0.35 0.18 | 0.20 | 2 of 9 (4.01) |
| KSAQSVLYESGNENSVA | WASTRES | QQYHRLPLS | 0.76 1.00 0.98 | 0.92 | 1 of 9 (5.10) |
| KSSQSVLYEVRNKNGVA | HASTRES | QQYHRLPLS | 1.01 1.23 1.02 | 1.09 | 0 of 9 |
| TSSQPVLYESRNKDSVA | WASTRES | QQYHRLPLS | 1.02 1.26 1.01 | 1.10 | 1 of 9 (2.87) |
| TSSQSVLYESRNKNSVA | WASTRES | QQYHRLPLS | 1.29 1.37 1.20 | 1.29 | 0 of 9 |
| KASQSNLYESRNKESVA | WASTRES | QQYHRLPLS | 1.20 1.32 1.37 | 1.30 | 0 of 9 |

Parent in this assay: reference entry 0.65, copy in this library 1.68.
Background: pairings of library AAYL50 with three empty control strains gave a value in 18% of cases (median 4.19, 5th percentile 2.99). Values in that range, when seen in few replicates, are hard to tell from nonspecific mating. For each scFv, signals with the empty controls are counted beside the result, with their mean in brackets.